This is an account of results in patent US5436251A, “Treatment of anxiety and gastrointestinal disorders with azabicyclo carbonyl-2-(cyclopropylmethyloxy)benzamide” (John Wyeth & Brother, Limited, priority 1992, dated 1995).

Amino acid sequences for entries named in this document (tags omitted). Residues count along the entry.
UniProt P35563, 24-483 limits assumed: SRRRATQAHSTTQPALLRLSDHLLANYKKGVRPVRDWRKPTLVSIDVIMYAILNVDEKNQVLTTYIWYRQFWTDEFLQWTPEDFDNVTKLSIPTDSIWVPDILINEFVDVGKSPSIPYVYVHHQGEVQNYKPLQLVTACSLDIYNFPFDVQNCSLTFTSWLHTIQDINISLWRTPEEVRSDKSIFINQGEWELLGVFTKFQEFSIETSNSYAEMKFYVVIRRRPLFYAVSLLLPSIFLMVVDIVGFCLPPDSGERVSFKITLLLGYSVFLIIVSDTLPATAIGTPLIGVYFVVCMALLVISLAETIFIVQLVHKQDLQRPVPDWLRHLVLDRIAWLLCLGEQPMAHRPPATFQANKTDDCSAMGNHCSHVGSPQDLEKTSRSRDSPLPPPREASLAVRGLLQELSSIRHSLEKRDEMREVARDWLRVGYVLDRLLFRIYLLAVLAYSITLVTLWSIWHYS

One assay deals with 5-HT3 receptors (Rattus norvegicus, UniProt P35563). The assay can be described thus: 5-HT3 antagonistic activity in the rat vagus (antagonism of 5-HT depolarization of isolated vagus nerve, Schild analysis). More on the design: species or system rat (Sprague-Dawley). To be noted: rat vagus nerve in vitro, tested form: fumarate. The method, then: Compound A, the compound of GB 2236528A and the compounds disclosed in GB 2213816A are tested for 5-HT3 antagonistic activity in the rat vagus by the following procedure:
The method is similar to that described by Ireland and Tyers, Br. J. Pharmac., 1987, 90, 229-238 and is dependent upon the ability of 5-HT to depolarize the vagus nerve in vitro.
Segments of the vagus nerve from Sprague-Dawley rats were placed in a perspex chamber and perfused with Krebs solution. Electrodes, positioned at either end of the nerve segment, were used to record the potential differences which ensued upon the addition of various concentrations of 5-HT to one end of the nerve segment.
Concentration-response curves to 5-HT were obtained in this manner prior to and following equilibration of the nerve segment with Krebs solution containing the test-substance.

Assay [1] in a line: Potential anxiolytic activity: mouse exploratory activity in a two-compartment light/dark box. To be noted: s.c.; significant (p<0.05) increase in rearing activity in the light section; tested form: fumarate. The method, then: Compound A, the compound of GB 2236528A and a representative number of compounds disclosed in GB 2213816A which had high pA2 values in the 5-HT3 -antagonist test procedure given above were tested for potential anxiolytic activity by a test procedure measuring mouse exploratory activity in a two-compartment light/dark box based upon the procedure of B Costall et al, Neuropharmacology, 1987, 26, 195-200 and J. N. Crawley et al, Pharmac. Biochemo Behav., 1980, 13, 167-170. The test involves observing groups of mice placed in an open topped box, one third of which is painted black and illuminated under a dim red light and partitioned from the remainder of the box which is painted white and brightly illuminated. Access between the two sections is via an opening in the centre of the partition. The groups of mice are treated with vehicle or test compound and various behavioural parameters of the animals are measured including the number of exploratory rearings made by the mice in each section and the number of times the mice cross lines marked on the floor of each section. For each treatment group the mean numbers of line crossings and rears in each section of the box are calculated. Differences between drug-treated groups and vehicle-treated controls are compared using Student's unpaired t-test. […]

In turn, `COc1ccccc1C(=O)NC(=O)NC1CN2CCC1CC2` (centres unmarked) registered a pA2 on 5-HT3 receptors of 8.0. In addition, in assay [1], the “minimum effective dose (MED)” value was 0.1 mg/kg.

In general, pA2 refers to a measure of antagonist potency on a negative log scale. A low value points to a weaker antagonist.
